Here are results for 1 compound from ChEMBL document CHEMBL2218924, “A broad activity screen in support of a chemogenomic map for kinase signalling research and drug discovery” (Biochem J, 2013).

Chains of the proteins cited; added tags and fusions are not shown. Lines headed by an entry give the natural chain unless they say otherwise; changes in a name come on top.
UniProt Q13882, whole entry, looked up: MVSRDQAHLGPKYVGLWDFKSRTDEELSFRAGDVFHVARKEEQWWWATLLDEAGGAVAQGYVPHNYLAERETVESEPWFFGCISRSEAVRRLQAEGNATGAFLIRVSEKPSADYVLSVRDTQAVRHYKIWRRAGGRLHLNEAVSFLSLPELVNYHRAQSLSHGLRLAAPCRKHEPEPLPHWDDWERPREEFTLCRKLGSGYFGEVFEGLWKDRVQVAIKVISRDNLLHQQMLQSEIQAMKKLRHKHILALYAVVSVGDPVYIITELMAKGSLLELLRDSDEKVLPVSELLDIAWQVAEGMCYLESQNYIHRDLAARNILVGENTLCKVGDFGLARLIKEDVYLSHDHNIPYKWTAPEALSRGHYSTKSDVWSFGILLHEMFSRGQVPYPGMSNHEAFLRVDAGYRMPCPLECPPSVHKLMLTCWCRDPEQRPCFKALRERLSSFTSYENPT
UniProt P54764, whole entry: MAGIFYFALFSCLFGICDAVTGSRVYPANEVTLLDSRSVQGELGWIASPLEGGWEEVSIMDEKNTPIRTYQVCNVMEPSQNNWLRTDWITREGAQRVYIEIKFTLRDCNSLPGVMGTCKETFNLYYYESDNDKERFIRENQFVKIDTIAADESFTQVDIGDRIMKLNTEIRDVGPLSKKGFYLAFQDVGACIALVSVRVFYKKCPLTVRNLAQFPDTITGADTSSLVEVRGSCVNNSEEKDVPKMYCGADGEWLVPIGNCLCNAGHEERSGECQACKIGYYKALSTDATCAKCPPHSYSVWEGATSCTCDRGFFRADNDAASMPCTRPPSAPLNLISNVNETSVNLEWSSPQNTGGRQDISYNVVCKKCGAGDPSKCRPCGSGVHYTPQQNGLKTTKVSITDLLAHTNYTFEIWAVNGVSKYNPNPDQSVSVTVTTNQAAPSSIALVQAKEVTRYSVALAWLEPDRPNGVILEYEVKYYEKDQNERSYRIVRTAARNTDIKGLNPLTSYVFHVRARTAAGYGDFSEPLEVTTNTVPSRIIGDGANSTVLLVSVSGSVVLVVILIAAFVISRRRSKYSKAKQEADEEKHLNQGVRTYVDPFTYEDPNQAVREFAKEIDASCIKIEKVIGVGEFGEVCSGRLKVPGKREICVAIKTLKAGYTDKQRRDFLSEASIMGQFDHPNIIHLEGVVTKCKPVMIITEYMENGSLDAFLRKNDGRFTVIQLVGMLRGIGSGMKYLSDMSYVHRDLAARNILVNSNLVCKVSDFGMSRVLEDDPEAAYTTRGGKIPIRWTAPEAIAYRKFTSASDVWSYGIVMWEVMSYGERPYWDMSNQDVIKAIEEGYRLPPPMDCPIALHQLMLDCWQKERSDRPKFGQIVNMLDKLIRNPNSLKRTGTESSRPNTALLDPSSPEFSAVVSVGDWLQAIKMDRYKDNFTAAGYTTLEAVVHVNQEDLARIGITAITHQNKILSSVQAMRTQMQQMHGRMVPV
UniProt P43250, whole entry, looked up: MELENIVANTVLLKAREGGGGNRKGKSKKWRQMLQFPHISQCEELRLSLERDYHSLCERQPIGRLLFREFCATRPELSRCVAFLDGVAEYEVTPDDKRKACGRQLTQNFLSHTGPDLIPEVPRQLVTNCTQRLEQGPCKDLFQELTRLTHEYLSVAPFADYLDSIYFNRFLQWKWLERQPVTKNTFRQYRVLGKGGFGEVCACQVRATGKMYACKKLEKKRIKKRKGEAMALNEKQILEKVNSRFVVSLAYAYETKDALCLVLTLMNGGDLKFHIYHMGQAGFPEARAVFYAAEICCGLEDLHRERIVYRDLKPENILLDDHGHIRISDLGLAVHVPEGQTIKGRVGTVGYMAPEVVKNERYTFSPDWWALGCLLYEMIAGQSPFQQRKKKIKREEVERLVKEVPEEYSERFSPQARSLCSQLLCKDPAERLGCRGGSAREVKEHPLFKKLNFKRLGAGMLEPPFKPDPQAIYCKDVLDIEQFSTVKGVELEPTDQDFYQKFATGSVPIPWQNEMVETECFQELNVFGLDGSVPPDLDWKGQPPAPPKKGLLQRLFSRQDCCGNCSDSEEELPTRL
UniProt P28482, whole entry: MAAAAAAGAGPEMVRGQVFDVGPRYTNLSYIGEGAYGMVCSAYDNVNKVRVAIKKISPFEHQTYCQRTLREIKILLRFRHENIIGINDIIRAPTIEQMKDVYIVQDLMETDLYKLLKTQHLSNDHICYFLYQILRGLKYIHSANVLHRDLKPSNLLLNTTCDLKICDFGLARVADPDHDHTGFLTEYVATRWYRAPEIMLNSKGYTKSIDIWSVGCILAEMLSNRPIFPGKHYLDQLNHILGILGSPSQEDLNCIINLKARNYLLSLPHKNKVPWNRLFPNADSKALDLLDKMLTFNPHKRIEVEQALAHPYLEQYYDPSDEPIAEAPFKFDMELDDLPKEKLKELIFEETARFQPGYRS
UniProt Q13188: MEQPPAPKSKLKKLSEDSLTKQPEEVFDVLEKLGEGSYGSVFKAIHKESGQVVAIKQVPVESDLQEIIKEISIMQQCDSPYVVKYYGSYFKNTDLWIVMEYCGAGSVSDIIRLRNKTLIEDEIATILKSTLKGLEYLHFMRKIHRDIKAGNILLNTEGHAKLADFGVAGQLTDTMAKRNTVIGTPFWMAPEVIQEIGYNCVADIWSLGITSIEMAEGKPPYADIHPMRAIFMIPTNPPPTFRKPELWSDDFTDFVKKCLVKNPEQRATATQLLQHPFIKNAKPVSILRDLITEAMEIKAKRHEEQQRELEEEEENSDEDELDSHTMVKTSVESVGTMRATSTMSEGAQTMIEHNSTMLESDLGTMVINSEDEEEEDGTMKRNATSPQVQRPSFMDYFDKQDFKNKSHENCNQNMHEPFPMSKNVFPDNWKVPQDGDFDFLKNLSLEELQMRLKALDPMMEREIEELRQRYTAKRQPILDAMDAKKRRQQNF
UniProt Q86UE8, whole entry, looked up: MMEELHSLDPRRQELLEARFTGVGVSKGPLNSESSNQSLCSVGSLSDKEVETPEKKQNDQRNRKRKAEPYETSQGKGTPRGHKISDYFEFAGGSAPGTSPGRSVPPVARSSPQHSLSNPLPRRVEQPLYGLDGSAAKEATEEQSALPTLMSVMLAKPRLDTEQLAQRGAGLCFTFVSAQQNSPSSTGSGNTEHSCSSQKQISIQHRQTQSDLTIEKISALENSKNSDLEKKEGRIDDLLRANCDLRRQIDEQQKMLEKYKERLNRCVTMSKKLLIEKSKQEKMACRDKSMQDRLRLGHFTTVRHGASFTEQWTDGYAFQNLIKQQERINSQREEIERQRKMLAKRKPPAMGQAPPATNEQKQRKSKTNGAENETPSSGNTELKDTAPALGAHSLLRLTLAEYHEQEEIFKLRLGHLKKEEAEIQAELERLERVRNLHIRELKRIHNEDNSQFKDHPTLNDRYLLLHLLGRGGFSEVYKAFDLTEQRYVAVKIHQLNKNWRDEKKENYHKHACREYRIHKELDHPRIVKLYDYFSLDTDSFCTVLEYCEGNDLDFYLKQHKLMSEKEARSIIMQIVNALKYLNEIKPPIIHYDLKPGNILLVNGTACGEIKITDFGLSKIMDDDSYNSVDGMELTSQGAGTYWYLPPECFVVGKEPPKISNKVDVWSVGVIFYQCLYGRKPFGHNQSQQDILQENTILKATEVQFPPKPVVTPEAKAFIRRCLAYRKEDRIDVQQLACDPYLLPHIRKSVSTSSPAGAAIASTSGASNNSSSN
UniProt Q16620, whole entry, looked up: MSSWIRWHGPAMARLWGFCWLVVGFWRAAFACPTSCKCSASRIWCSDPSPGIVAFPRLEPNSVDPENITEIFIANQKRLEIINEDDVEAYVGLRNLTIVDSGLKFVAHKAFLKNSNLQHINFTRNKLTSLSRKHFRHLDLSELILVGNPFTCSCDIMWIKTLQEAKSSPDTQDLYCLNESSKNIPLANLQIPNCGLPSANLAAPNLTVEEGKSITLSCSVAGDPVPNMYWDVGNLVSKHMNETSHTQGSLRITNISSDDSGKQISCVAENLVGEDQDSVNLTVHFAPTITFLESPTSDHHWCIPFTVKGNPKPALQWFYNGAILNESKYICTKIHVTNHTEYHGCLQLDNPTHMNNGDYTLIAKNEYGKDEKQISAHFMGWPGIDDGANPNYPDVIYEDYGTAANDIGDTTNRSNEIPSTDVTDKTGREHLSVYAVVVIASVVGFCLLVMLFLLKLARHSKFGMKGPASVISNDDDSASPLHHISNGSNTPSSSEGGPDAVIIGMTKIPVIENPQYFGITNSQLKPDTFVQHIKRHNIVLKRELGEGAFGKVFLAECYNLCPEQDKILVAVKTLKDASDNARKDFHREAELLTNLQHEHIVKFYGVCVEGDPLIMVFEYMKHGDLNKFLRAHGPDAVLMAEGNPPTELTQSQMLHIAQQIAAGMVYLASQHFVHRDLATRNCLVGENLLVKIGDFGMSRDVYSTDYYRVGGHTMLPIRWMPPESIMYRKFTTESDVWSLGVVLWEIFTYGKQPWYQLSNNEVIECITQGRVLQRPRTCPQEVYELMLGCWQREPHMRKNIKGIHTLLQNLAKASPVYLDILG
UniProt Q9NQU5: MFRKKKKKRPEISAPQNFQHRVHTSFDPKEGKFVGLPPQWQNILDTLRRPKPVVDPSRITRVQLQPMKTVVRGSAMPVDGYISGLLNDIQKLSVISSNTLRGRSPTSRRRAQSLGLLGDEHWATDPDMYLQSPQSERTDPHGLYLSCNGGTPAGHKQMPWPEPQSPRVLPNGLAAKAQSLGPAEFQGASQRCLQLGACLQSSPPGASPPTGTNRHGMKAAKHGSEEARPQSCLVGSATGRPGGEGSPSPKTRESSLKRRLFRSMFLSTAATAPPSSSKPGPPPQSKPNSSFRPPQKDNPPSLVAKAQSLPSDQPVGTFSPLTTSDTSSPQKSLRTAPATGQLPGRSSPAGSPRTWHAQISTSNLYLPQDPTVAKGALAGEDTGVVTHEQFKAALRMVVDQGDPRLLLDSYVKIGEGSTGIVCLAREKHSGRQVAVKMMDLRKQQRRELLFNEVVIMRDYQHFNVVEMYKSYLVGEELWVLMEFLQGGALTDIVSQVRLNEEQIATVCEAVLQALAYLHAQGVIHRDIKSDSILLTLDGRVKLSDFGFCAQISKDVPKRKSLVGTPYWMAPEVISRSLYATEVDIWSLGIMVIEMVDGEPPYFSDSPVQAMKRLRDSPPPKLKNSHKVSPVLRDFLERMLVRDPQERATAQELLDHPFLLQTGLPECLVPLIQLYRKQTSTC
UniProt P16234: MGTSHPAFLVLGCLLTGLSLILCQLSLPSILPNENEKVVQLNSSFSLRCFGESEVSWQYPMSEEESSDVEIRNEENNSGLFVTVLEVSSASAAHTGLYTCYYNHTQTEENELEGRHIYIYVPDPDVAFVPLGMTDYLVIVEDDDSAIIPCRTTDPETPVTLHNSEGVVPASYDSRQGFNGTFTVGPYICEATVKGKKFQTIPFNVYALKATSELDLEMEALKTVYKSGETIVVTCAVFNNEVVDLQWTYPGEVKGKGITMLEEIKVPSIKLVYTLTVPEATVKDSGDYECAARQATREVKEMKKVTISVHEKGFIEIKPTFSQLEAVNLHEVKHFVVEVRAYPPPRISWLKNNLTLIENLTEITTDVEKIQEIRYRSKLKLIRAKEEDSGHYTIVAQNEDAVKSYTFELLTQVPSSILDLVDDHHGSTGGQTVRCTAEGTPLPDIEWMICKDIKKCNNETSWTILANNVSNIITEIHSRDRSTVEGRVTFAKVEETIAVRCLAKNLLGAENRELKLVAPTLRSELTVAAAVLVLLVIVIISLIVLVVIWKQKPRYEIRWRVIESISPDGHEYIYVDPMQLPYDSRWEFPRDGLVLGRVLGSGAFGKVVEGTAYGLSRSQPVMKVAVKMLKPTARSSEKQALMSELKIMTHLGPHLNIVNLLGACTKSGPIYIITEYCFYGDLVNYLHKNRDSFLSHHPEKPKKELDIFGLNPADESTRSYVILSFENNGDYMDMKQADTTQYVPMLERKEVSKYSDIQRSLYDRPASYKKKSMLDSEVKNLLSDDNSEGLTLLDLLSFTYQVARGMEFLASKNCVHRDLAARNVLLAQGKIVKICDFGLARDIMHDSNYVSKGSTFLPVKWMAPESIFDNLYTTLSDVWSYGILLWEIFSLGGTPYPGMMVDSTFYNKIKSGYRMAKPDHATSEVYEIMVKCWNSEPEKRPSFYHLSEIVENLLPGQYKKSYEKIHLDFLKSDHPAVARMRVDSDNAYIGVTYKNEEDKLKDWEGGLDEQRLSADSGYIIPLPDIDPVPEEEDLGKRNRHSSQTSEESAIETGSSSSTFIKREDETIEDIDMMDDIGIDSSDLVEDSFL

For test [1], the target named is Protein-tyrosine kinase 6 (Homo sapiens) (UniProt Q13882). The settings on record: at 10 µM.
Test [2] addresses Ephrin type-A receptor 4 (Homo sapiens) (UniProt P54764). The settings on record: at 10 µM.
For test [3], the target named is Ephrin type-B receptor 3 (Homo sapiens) (UniProt P54753). The settings on record: at 10 µM.
Test [4] concerns the target G protein-coupled receptor kinase 6 (Homo sapiens) (UniProt P43250). The settings on record: at 10 µM.
Test [5] addresses T1, Macrophage-stimulating protein receptor (Homo sapiens) (UniProt Q04912).
T1 sequence (whole entry): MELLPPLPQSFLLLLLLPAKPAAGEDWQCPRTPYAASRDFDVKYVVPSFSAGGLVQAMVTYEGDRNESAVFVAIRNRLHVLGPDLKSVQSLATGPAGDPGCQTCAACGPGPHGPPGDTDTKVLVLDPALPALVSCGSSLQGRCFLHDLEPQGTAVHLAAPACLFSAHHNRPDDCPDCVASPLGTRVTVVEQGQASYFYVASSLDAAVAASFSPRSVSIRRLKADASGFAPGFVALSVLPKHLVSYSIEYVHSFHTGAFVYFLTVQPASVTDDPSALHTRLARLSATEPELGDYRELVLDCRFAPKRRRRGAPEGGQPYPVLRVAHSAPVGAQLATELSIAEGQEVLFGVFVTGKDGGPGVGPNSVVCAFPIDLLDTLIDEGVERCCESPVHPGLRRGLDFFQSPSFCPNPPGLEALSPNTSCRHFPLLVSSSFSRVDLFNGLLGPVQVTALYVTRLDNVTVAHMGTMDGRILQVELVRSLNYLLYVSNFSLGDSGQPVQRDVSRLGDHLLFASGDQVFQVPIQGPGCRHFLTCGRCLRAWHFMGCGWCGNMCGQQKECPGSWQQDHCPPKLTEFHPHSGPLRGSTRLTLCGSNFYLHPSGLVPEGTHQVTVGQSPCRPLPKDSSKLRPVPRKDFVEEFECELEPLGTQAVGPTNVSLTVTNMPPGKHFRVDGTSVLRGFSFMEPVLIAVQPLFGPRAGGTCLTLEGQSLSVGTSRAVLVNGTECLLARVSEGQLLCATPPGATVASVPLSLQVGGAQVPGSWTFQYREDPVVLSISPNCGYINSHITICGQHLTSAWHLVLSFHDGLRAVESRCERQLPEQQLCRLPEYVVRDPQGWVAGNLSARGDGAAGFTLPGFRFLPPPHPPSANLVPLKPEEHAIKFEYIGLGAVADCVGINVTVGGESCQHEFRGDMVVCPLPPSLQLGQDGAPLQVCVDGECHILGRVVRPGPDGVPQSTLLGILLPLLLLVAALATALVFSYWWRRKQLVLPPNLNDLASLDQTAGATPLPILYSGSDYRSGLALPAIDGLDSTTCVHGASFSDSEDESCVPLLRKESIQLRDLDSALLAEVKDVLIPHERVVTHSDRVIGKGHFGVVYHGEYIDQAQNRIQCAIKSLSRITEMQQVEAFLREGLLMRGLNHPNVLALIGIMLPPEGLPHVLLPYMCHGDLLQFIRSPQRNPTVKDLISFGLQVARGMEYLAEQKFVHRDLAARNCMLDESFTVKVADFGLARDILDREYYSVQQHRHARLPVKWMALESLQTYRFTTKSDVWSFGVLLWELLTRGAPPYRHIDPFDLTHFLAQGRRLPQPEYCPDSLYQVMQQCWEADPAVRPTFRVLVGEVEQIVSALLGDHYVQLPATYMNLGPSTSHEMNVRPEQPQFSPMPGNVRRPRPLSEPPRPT
The settings on record: at 1 µM.

Test [6] deals with T1, Macrophage-stimulating protein receptor (Homo sapiens). The settings on record: at 10 µM.
The target of test [7] is Tyrosine-protein kinase Lck (Homo sapiens) (UniProt P06239). The settings on record: at 1 µM.
In test [8] the target is Mitogen-activated protein kinase 1 (Homo sapiens) (UniProt P28482). The settings on record: at 1 µM.
Test [9] addresses Serine/threonine-protein kinase 3 (Homo sapiens) (UniProt Q13188). The settings on record: at 10 µM.
For test [10], the target named is Serine/threonine-protein kinase tousled-like 2 (Homo sapiens) (UniProt Q86UE8). The settings on record: at 10 µM.
Test [11] deals with BDNF/NT-3 growth factors receptor (Homo sapiens) (UniProt Q16620). The settings on record: at 1 µM.
In test [12] the target is T2, Serine/threonine-protein kinase ULK2 (Homo sapiens) (UniProt Q8IYT8).
T2 sequence (whole entry): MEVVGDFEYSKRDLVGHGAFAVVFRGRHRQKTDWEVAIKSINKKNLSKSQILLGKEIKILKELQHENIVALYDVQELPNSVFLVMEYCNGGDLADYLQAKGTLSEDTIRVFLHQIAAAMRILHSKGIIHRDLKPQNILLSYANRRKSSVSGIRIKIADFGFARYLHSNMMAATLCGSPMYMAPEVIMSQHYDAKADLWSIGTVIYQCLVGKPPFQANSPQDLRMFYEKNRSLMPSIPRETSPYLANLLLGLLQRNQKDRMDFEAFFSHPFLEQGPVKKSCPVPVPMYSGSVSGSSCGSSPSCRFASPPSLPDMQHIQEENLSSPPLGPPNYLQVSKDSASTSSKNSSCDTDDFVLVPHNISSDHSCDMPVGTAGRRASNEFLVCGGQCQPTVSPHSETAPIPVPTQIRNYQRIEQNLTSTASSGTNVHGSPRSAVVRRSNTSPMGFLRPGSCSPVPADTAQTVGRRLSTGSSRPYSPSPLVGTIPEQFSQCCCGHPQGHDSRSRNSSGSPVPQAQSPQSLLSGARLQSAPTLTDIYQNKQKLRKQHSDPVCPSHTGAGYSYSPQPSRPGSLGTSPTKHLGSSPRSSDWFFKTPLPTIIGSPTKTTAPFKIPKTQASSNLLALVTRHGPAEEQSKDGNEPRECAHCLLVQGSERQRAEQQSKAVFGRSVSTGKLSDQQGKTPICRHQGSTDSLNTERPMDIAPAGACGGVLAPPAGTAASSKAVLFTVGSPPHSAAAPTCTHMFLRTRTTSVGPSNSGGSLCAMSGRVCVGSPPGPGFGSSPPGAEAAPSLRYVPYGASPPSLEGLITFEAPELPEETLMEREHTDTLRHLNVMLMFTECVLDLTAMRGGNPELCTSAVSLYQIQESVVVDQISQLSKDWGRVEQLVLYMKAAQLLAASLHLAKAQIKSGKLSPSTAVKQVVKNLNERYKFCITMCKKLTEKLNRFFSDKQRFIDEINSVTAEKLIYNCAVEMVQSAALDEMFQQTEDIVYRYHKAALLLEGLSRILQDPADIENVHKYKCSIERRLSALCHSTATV
The settings on record: at 1 µM.

Test [13] has as its target Proto-oncogene tyrosine-protein kinase Src (Homo sapiens) (UniProt P12931). The settings on record: at 1 µM.
Test [14] deals with T3, Serine/threonine-protein kinase NLK (Homo sapiens) (UniProt Q9UBE8).
T3 sequence (whole entry): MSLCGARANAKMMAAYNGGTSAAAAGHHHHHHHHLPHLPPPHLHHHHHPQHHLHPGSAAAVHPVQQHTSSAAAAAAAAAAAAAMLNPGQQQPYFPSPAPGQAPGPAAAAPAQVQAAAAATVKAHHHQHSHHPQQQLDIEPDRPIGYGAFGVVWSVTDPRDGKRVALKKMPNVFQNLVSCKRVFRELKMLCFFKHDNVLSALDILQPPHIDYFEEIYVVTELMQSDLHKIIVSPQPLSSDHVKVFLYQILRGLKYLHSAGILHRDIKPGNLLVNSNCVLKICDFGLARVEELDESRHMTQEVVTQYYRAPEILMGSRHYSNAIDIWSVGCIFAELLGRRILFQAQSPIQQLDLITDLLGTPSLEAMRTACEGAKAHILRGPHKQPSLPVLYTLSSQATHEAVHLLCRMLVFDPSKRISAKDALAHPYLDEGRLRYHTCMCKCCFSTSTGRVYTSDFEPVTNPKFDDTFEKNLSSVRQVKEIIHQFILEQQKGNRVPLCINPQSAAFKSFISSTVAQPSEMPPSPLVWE
The settings on record: at 1 µM.

In test [15] the target is Serine/threonine-protein kinase PAK 5 (Homo sapiens) (UniProt Q9P286). The settings on record: at 10 µM.
For test [16], the target named is Serine/threonine-protein kinase PAK 6 (Homo sapiens) (UniProt Q9NQU5). The settings on record: at 10 µM.
For test [17], the target named is Platelet-derived growth factor receptor alpha (Homo sapiens) (UniProt P16234). The settings on record: at 1 µM.
Test [18] shares this target. The settings on record: at 10 µM.

For part of these data: What follows is the remainder of the data, with few or none of the strong results. This is a selection; strong and weak results do not stand in their true shares.

Consider `Cn1nc2c3c(cccc31)C(=O)c1ccccc1-2`, for which the residual activity in test [1] was 115%; in [2] it was 116%; in [3] it was 114%; in test [4], 78%; in [5] it was 82%; in test [6] it was 78%. Besides, the residual activity in [7] amounted to 78%; in test [8] it was 109%; in test [9], 78%; in test [10], 78%; in [11], 78%; in test [12], 116%. For the same compound, the residual activity is 114% in test [13]; 99% in test [14]; 78% in test [15]; 78% in [16]; 113% in test [17]; 113% in test [18].
